# Source: US20140249056A1, “BILAYERS” (ISIS INNOVATION LIMITED, priority 2009, published 2014)
# The chains behind the UniProt entries cited, without tags or fusion partners. Residues count along the entry.
# UniProt Q12879, 23-1464: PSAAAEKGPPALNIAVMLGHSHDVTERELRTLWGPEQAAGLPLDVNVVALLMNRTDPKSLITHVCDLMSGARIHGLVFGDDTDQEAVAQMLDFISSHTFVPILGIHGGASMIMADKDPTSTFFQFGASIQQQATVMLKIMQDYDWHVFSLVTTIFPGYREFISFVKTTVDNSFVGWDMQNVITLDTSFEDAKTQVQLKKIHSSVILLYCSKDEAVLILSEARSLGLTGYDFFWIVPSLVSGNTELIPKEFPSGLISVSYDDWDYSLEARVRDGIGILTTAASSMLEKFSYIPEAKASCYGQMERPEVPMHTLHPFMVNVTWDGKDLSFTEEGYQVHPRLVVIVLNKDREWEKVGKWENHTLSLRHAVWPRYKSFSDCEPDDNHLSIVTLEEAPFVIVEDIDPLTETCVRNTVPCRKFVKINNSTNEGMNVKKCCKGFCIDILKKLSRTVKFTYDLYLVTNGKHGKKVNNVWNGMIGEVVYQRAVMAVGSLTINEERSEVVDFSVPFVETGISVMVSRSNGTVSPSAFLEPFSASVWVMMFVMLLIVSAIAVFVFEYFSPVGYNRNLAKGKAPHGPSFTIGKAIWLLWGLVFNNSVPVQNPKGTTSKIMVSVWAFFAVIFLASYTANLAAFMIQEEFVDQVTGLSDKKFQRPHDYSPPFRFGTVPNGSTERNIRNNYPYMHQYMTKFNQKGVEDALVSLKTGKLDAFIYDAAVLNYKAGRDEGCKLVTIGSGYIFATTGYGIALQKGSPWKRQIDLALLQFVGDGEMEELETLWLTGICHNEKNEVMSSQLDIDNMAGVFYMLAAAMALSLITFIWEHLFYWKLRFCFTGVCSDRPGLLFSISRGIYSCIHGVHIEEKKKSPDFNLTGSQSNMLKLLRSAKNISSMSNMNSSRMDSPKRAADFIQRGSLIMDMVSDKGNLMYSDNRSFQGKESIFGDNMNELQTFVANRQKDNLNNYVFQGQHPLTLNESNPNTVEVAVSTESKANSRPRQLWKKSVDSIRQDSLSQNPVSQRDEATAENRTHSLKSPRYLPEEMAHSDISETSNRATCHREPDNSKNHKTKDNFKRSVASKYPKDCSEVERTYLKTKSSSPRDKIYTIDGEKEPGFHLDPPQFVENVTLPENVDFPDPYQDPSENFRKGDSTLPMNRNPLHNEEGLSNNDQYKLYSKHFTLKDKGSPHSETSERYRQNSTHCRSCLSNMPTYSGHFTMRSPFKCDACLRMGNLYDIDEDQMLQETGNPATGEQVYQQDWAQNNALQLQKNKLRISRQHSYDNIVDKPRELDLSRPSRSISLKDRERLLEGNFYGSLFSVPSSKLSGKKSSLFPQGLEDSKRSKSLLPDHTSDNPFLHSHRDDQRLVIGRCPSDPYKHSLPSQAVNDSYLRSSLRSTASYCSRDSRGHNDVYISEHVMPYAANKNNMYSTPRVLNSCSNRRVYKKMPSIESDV
# Target: Human NR1-1a/NR2A NMDA receptor (Homo sapiens, UniProt Q05586+Q12879)
# Details: glutamate 10 μM and glycine 10 μM added together, +50 mV, bulk current, n=5
smiles,measurement,value
N[C@@H](CCC(=O)O)C(=O)O [glutamate],increase in ionic flux,98%
